Data as given in PubChem BioAssay AID720553 (National Center for Advancing Translational Sciences (NCATS), 2013).
This is a selection; strong and weak results do not stand in their true shares. Some salts and complexes are drawn in separate pieces, as the source files them; their charges need not balance. Active and inactive are the calls of the source.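 Rule for the calls: active = maximum activity change below -70%; inconclusive = maximum activity change from -70% to -50%; inactive = maximum activity change above -50%.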

Test system: Potassium voltage-gated channel subfamily H member 2, brain isoform KCNH2 3.1 (human)
Experiment: qHTS for Inhibitors of KCHN2 3.1: Mutant qHTS
Conditions: U2OS KCNH2 3.1, thallium flux FluxOr; stronger effect = lower value
Description: Many antipsychotic drugs that inhibit the neurotransmitter dopamine also bind to hERG1 channel which might help explain their antipsychotic activity but also produces cardiac side effects. The discovery of the novel KCNH2 3.1 isoform offers a potential new target for the development of antipsychotic drugs without cardiac side effects. This proposal will use a high throughput thallium flux assay developed for KCNH2 to screen compounds that modulate the activity of KCNH2 3.1. The wild type KCNH2 channel will also be screened in parallel to help define the selective modulators of this KCNH2 3.1 potassium channel. The resulting compounds will be validated in electrophysiology experiments. The availability of animal models will allow future testing in vivo for effects on memory and other aspects of animal physiology linked with psychosis. NIH Chemical Genomics Center [NCGC] NIH Molecular Libraries Probe Centers Network [MLPCN] MLPCN Grant: MH096539 Assay Submitter (PI): James Barrow, Johns Hopkins University, Lieber Institute for Brain Development
U2OS cells were resuspended in cell media containing 10% fetal calf serum (FCS) at a concentration of 2 million cells / mL. The solution was treated with the mutant (3.1) virus at 1.77 x 10^8 / mL and allowed to incubate at room temperature in the dark. After 4 hours of incubation, DMEM + 10% fetal bovine serum (FBS) was added to the cell solution. Three microliter was then dispensed into a 1536 tissue culture treated black assay plates which were incubated overnight at 37 C. Two microliter of loading buffer (HBSS + HEPES + Red40 dye quencher + FluxOr dye) was added and the assay plates were incubated for 45 min at room temperature in the dark. […] A stimulation buffer was added to the plate and the second kinetic read (2 min) was obtained. The rate constant was calculated from the kinetic reads and normalized to the positive and negative DMSO controls.
% is set by controls: 0 for no effect and ±100 for the full control effect.

Compound	activity change
COc1ccc(Cl)cc1C(=O)NCC1(N2CCOCC2)CCCCC1	inactive: -7.6%
O=C1C(O)=C([N+](=O)[O-])C(=O)C(O)=C1[N+](=O)[O-]	inactive: 10.4%
O=C(NCC1(N2CCCCC2)CCCCC1)c1ccc(Cl)s1	inactive: 0.58%
N#CC1(Nc2ccccc2)CCN(Cc2ccccc2)CC1	inactive: 10.8%
O=C(OC1CN2CCC1CC2)C1c2ccccc2Oc2ccccc21 (configuration not stated)	inactive: 0.519%
CCOC(=O)N1CCC(Nc2ccc(OC)cc2)CC1	inactive: 6.31%
Cc1cc(C)cc(N(C(=O)c2ccccc2)C2CCN(C(=O)OC(C)(C)C)CC2)c1	inactive: -10.5%
O=C(NCC1(N2CCCCC2)CCCCC1)c1ccc(Cl)nc1	inactive: 12.4%
O=C(NCC1(N2CCOCC2)CCCCC1)c1cc2ccccc2o1	inactive: 9.32%
Cc1cccc(NC2(C#N)CCN(Cc3ccccc3)CC2)c1	inactive: -0.514%
CSc1ccccc1C(=O)NCC1(N2CCCCC2)CCCCC1	inactive: -0.0758%
COc1ccc(C(=O)NCC2(N3CCCCC3)CCCCC2)c(OC)c1OC	inactive: -41.9%
CC(C)(C)OC(=O)N1CCC(N(C(=O)c2ccccc2)c2ccc(F)cc2)CC1	inactive: -4%
COc1ccc(C(=O)NCC2(N3CCCCC3)CCCCC2)cc1	inactive: 0.894%
O=C(NCC1(N2CCCCC2)CCCCC1)c1cccs1	inactive: 5.66%
O=C(NCC1(N2CCCCC2)CCCCC1)c1ccc(=O)[nH]c1	inactive: -2.92%
CCOC(=O)N1CCC(Nc2cccc(C)c2)CC1	inactive: -3.22%
COc1cc(C(=O)NCC2(N(C)C)CCCCC2)ccc1OC(F)F	inactive: -23.4%
COc1ccc(NC2CCN(CCc3ccccc3)CC2)c(OC)c1	inactive: -1.72%
CCOC(=O)N1CCC(Nc2ccc(F)cc2)CC1	inactive: 1.15%
O=P1(N(CCCl)CCCl)SCCCS1	inactive: 19%

Compound	activity change
CCCCOc1ccc(C(=O)NCC2(N3CCOCC3)CCCCC2)cc1	inactive: -36%
O=C(NCC1(N2CCCCC2)CCCCC1)c1ccc(F)cc1	inactive: 0.588%
O=C1CCN(Cc2ccccc2)CC1	inactive: 0.237%
CCOc1ccc(C)cc1CN(CCCl)CCCl	inactive: -16.5%
COc1cc(C(=O)NCC2(N3CCCCC3)CCCCC2)ccc1OC(F)F	inactive: -45.3%
O=C(NCC1(N2CCOCC2)CCCCC1)c1cc(=O)[nH]c2ccccc12	inactive: 1.87%
CN1CCN(CCOC(=O)C(O)(c2ccccc2)c2ccccc2)CC1	inactive: 1.32%
COc1ccc(NC2CCN(C(=O)OC(C)(C)C)CC2)cc1	inactive: -1.43%
CC(C)c1ccc(C(=O)NCC2(N3CCOCC3)CCCCC2)cc1	inactive: -6.33%
O=[N+]([O-])c1cc([N+](=O)[O-])c(NCC2CCS(=O)(=O)C2)c([N+](=O)[O-])c1 (configuration not stated)	inactive: -2.19%
O=C(NCC1(N2CCCCC2)CCCCC1)c1cccc(C(F)(F)F)c1	inactive: -7.74%
N#CC1(Nc2ccccc2)CCN(CCc2ccccc2)CC1	inactive: -2.44%
CCN1CCC(Nc2ccc(Cl)cc2)CC1	inactive: 1.49%
O=C(NCC1(N2CCCCC2)CCCCC1)c1cccc([N+](=O)[O-])c1	inactive: 8.37%
CSc1ccc(C(=O)NCC2(N3CCOCC3)CCCCC2)cc1	inactive: -12.3%
O=[N+]([O-])c1cc([N+](=O)[O-])c(Nc2ccc(Cl)cc2)c([N+](=O)[O-])c1	inactive: -11.1%
CCCOc1ccc(C(=O)NCC2(N(C)C)CCCCC2)cc1OC	inactive: -1.09%
Cc1ccc(C(=O)NCC2(N(C)C)CCCCC2)o1	inactive: 11.5%
O=C(OC1CN2CCC1CC2)c1ccc([N+](=O)[O-])cc1 (configuration not stated)	inactive: -6.16%
CN1CCC(Nc2cccc(F)c2)CC1	inactive: 19.2%
O=C(NCC1(N2CCCCC2)CCCCC1)c1cncc(Br)c1	inactive: 0.247%

Compound	activity change
COc1ccc2c(c1O)-c1c(O)c(OC)cc3c1[C@H](C2)[N+](C)(C)CC3.O=[N+]([O-])c1cc([N+](=O)[O-])c([O-])c([N+](=O)[O-])c1[O-]	inactive: 3.86%
O=C(NCC1(N2CCOCC2)CCCCC1)c1cc(F)c(F)cc1Cl	inactive: -40.6%
COc1cc(OC)c(C(=O)NCC2(N(C)C)CCCCC2)cc1OC	inactive: 20.6%
CC(C)c1ccc(NC2CCN(C(=O)OC(C)(C)C)CC2)cc1	inactive: 27.6%
O=[N+]([O-])c1cc([N+](=O)[O-])c(OC2CCCCC2O)c([N+](=O)[O-])c1 (configuration not stated)	inactive: -0.0625%
CN(C)c1cccc(C(=O)NCC2(N3CCCCC3)CCCCC2)c1	inactive: -11.4%
COc1ccc(CN(CCCl)CCCl)cc1Cl	inactive: -24.3%
O=C(O)c1cccc(Nc2c([N+](=O)[O-])cc([N+](=O)[O-])cc2[N+](=O)[O-])c1	inactive: 0.842%
CCc1cc(C(=O)NCC2(N3CCCCC3)CCCCC2)sc1C	inactive: -26.7%
O=C(OC1CN2CCC1CC2)C1c2ccccc2C=Cc2ccccc21 (configuration not stated)	inactive: -5.01%
CCOC(=O)N1CCC(Nc2ccc(C)cc2)CC1	inactive: 1.19%
N/C(=N\O)c1c(N)no[n+]1[O-]	inactive: -2.12%
COc1ccc(C(=O)NCC2(N3CCOCC3)CCCCC2)cc1OC	inactive: 14.1%
COc1cc(C(=O)NCC2(N3CCOCC3)CCCCC2)cc(OC)c1C	inactive: -18.1%
O=C(NCC1(N2CCOCC2)CCCCC1)c1cc(Br)ccc1Cl	inactive: 5.06%
CN(C)C1(CNC(=O)c2cccc(C#N)c2)CCCCC1	inactive: 25.8%
CCCN1CCC(Nc2cc(OC)cc(OC)c2)CC1	inactive: -29.9%
c1ccc(CN2CCC(Nc3ccccc3)CC2)cc1	inactive: -7.42%
CCOC(=O)C(CC)C1=NC(C)(C)Cc2ccccc21.O=[N+]([O-])c1cc([N+](=O)[O-])c(O)c([N+](=O)[O-])c1 (configuration not stated)	inactive: 5.45%
N#Cc1ccc(C(=O)NCC2(N3CCCCC3)CCCCC2)cc1	inactive: -0.619%
